{
  "source": "patent US6964759B2",
  "about": "“Formulations containing an anticholinergic drug for the treatment of chronic obstructive pulmonary disease” (Chiesi Farmaceutici S.p.A., priority 2000, dated 2005)",
  "assay": "Determination of the solubility of ipratropium bromide in ethanol / HFA 134a (visual appearance, polarized light)",
  "format": "physicochemical",
  "conditions": "20.1 mg drug, storage at 4.0°C",
  "data": [
    {"smiles": "CC(C)[N+]1(C)[C@@H]2CC[C@H]1CC(OC(=O)C(CO)c1ccccc1)C2.[Br-]", "note": "(some centres unmarked) [ipratropium bromide]", "values": [
      {"measurement": "Visual appearance (crystallisation)", "setting": "ethanol levels 14.7, 15.0, 16.8, 17.2, 17.5, 17.9 % by weight in HFA 134a", "value": "crystallise"},
      {"measurement": "Visual appearance (crystallisation)", "setting": "ethanol levels 18.9 to 40.1 % by weight in HFA 134a", "value": "not to crystallise"}
    ]}
  ]
}
